{"sequences": {"note": "Sequences of proteins named here, by UniProt entry; tags and fusion partners are left off.", "UniProt Q9UPY3, whole entry, looked up": "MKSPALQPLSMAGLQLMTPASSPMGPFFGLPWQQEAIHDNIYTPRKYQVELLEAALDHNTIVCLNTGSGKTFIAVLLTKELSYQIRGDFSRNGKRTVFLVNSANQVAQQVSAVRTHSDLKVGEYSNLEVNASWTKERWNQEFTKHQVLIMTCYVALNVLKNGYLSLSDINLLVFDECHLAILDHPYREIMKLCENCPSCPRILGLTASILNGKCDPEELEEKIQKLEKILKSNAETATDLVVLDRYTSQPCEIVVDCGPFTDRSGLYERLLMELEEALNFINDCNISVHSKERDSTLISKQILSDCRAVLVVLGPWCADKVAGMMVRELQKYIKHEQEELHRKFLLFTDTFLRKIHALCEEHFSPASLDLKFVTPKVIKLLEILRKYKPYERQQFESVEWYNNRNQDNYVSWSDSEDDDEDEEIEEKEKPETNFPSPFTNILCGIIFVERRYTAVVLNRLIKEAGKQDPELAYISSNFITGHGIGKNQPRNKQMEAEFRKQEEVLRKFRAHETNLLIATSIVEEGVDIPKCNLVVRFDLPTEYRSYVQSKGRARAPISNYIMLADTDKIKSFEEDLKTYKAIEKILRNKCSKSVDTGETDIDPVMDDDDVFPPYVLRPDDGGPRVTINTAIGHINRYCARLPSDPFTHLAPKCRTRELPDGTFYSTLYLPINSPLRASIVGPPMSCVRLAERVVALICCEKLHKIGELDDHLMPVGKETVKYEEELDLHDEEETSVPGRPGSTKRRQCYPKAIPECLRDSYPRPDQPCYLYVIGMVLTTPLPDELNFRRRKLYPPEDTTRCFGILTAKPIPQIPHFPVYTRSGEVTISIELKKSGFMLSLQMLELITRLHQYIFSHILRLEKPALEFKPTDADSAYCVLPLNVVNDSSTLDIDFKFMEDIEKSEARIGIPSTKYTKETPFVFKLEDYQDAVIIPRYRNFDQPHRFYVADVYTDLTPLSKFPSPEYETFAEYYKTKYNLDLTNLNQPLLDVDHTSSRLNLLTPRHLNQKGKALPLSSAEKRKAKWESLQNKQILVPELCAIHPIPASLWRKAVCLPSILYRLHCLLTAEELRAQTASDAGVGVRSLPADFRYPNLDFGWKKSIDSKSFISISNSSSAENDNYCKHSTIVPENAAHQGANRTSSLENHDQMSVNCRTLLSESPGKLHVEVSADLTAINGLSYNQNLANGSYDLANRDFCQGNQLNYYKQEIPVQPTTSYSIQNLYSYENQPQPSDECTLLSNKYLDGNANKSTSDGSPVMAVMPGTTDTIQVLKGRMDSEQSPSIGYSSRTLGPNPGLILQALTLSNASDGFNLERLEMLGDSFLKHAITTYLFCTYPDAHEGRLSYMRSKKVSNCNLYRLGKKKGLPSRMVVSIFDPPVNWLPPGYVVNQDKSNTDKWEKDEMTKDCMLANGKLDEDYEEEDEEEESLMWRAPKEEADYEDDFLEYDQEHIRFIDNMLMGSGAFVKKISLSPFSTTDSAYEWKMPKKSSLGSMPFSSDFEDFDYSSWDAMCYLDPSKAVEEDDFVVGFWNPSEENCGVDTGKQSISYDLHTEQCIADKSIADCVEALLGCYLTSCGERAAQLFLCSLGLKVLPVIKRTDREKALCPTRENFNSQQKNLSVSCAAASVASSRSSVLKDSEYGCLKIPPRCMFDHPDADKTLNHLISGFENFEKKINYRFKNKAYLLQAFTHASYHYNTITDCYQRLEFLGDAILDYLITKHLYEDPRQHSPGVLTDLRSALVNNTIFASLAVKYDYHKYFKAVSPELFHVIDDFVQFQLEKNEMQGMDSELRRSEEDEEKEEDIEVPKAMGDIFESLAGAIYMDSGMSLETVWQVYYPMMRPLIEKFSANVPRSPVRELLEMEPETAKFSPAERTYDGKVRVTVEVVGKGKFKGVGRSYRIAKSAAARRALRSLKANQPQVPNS"}, "source": "PubChem BioAssay AID1347074", "about": "(Center for Chemical Genomics, University of Michigan, 2019)", "note": "Only a part is listed here, and it is no random draw. Active and inactive are the calls of the source. No stated cut-off is given here; in the data, active means z-score above about 3 (passing the limit was not always enough); inactive means the rest."}
{"biological_target": "Endoribonuclease Dicer (Homo sapiens) (UniProt Q9UPY3)", "assay": "Dicer cleavage of pre-miR-21 blockers – biochemical, cat-ELCCA, chemiluminescence, primary screen (AID 1347074);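 further: plate controls were vehicle for no effect and no enzyme for full effect; higher signal means more uncleaved substrate so more Dicer inhibition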", "conditions": "cat-ELCCA pre-miR-21 Dicer processing, at 25 µM, hits give high values"}
{"smiles": "O=C(O)C1(O)c2ccccc2-c2ccccc21", "z-score": "inactive: -0.26"}
{"smiles": "CN(C)CCOC(=O)C(O)(c1ccccc1)c1ccccc1", "z-score": "inactive: 0.11"}
{"smiles": "C=CCN1CCN(CCOC(=O)C(O)(c2ccccc2)c2ccccc2)CC1", "z-score": "inactive: 0.32"}
{"smiles": "C/C1=C2N=C(/C=C3N=C(/C(C)=C4\\[N-][C@@](C)([C@@H]5N=C1[C@](C)(CCC(=O)NC[C@@H](C)OP(=O)([O-])O[C@H]1[C@@H](O)[C@@H](n6cnc7cc(C)c(C)cc76)O[C@@H]1CO)[C@H]5CC(N)=O)[C@@](C)(CC(N)=O)[C@@H]4CCC(N)=O)[C@@](C)(CC(N)=O)[C@@H]\\3CCC(N)=O)C(C)(C)[C@@H]/2CCC(N)=O.[C-]#N.[Co+3]", "z-score": "inactive: -0.04"}
{"smiles": "CN(C)CCOC(=O)C(O)(c1ccccc1)C1CCCC1", "note": "(stereo not given)", "z-score": "inactive: 0.83"}
